In PubChem BioAssay AID736 (The Scripps Research Institute Molecular Screening Center, 2007):
The list shows a part of the results, in another mix than the full data. Some results for these compounds are left out of this collection, so the calls shown say nothing about other tests. Active and inactive are the calls of the source. Rule as the data show it: active = inhibition above about 45%; inactive = the rest.

Sequences of proteins named here, by UniProt entry; tags and fusion partners are left off.
UniProt O95136, whole entry: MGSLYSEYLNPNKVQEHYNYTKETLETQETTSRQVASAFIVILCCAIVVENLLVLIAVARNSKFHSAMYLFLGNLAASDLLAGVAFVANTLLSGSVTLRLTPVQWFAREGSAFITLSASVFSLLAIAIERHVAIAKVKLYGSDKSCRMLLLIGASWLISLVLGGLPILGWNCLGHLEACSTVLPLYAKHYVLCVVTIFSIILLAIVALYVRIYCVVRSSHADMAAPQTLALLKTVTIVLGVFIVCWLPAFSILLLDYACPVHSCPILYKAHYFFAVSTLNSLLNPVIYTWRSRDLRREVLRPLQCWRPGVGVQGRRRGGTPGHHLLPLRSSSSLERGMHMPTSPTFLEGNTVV

Each molecule was assayed against Sphingosine 1-phosphate receptor 2 (Homo sapiens) (UniProt O95136) (assay: human S1P2 receptor antagonists, primary screen, cell-based (AID 736;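 also: CRE beta-lactamase reporter cells expressing human S1P2 stimulated with S1P; 0% = agonist at EC80 alone and 100% = agonist plus reference antagonist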)). Settings: cell-based S1P2 antagonist assay, at 5 µM, active compounds read high.
For CC(C)N1C(=O)CC2(CCN(CCOC(=O)C(O)(c3ccccc3)c3ccccc3)CC2)C1=O, the inhibition was inactive: 16.2%. In the case of CN(C)c1cccc(C(=O)NCC2(N(C)C)CCCCC2)c1, the inhibition is reported as inactive: 14.4%. With O=C(OC1CN2CCC1CC2)C(CO)(c1ccccc1)c1ccccc1 (stereo not drawn) the inhibition was inactive: -10.4%.
